Screening data from PubChem.
Yeast UUG start – alters start codon recognition fidelity in yeast | S. cerevisiae UUG-firefly luciferase reporter, luminescence/redox ratio | activity score, % at 18.7 µM | 350,000 compounds, 0.13% hits | AID 602363;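 active = replicate mean at a twofold rise or more, about +100% in these data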;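 note: firefly luciferase made from a UUG start codon reports start codon fidelity; reporter light over untreated wells divided by growth signal over untreated wells; some hits fall short of that in this replicate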
Dyrk1A ADPGlo – rat Dyrk1A kinase inhibitors, primary screen, biochemical, single point, plate reader; 310,000 tested, 0.43% active; ADP-Glo luminescence, NFATc1 peptide; inhibition, % at 12.5 µM; AID 504441, 2011; in the data active = inhibition above about 50%;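 also: plate controls were vehicle with enzyme for no effect and no enzyme for full effect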
CAL PDZ FP-1 – untagged CAL PDZ binding inhibitors, primary screen, biochemical, fluorescence polarization, HTS. purified CAL PDZ, TMR-peptide fluorescence polarization, 1 h. 300,000 tested, 0.92% active. inhibition, % at 24.9 µM. Golgi-associated PDZ and coiled-coil motif-containing protein (Homo sapiens), Q9HD26;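 active = mean inhibition of at least 30% with at least half of replicates also reaching 30%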;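 also: 0% = DMSO neutral control and 100% = excess unlabeled competitor peptide PRC23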
dFosB activator – activators of delta FosB homodimer, primary screen, biochemical, fluorescence polarization, TAMRA-CDK5 oligo, single point. purified delta FosB; percent of positive-control signal above neutral wells. activation, % at 25 µM. 340,000 tested, 0.99% active. Protein FosB (Mus musculus), P13346;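 active = mean activation above about 17%, with every replicate also reaching it, limit read from the data, passing the limit was not always enough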
CDK5 inh – inhibitors of human CDK5/p35 kinase, primary screen, biochemical, single concentration. Recombinant CDK5/p35, ADP-Glo luminescence, 60 min. 330,000 tested, 0.01% active. Cyclin-dependent kinase 5 (Homo sapiens) + Cyclin-dependent kinase 5 activator 1 (Homo …. inhibition, % at 10 µM;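 active = highest replicate inhibition of at least 50% and at least 75% of replicates reaching 50%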;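 also: plate controls were DMSO neutral control for no effect and GW8510 at 10 µM for full effect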
CAL PDZ FP-2 – CAL PDZ peptide-binding inhibitors, primary screen, biochemical, fluorescence polarization, Cer-tagged CAL PDZ, HTS | purified CAL PDZ, TMR-peptide fluorescence polarization, 1 h | inhibition, % at 20 µM | 330,000 tested, 0.02% active;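 active = highest replicate inhibition of at least 40%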;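 also: plate controls were DMSO neutral control wells for no effect and unlabeled competitor peptide control wells for full effect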
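material = purified tagged CAL PDZ domain construct (CerCALP) | buffer or medium = sodium phosphate/NaCl buffer pH 7.4 with TCEP, IgG, Thesit | reagent = TMR-labelled reporter peptide T*-PRC34 bound in PDZ groove | incubation = 1 h room-temperature incubation prior to read | measured by = fluorescence polarization (mP) | evaluation = percent inhibition from loss of millipolarization | control set = unlabelled peptide and DMSO controls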
* marks the source's active call; other numbers are inactive results. A selection: hits, their analogues and other compounds. The true share with any hit is near 1.7%.

For COCCn1c(SCc2ccc(F)cc2)nc2ccccc2c1=O the results were Yeast UUG start -9, Dyrk1A ADPGlo 1, CAL PDZ FP-1 active, dFosB activator -8, CDK5 inh 1 and CAL PDZ FP-2 0.
Screening COCCn1c(SCc2ccc(OC)c(F)c2)nc2ccccc2c1=O returned Dyrk1A ADPGlo -6, dFosB activator -12, CDK5 inh 2 and CAL PDZ FP-2 -1.
Screening CC1CN(C(=O)/C=C/c2ccc([N+](=O)[O-])s2)CC(C)O1 (configuration not stated) returned Dyrk1A ADPGlo 3, CAL PDZ FP-1 40*, dFosB activator -4, CDK5 inh -1 and CAL PDZ FP-2 0.
CCCNC(=O)N(C)C[C@H]1Oc2ncc(C3=CCCC3)cc2C(=O)N([C@H](C)CO)C[C@H]1C was read as Yeast UUG start -3.
For Cc1cc(C)n2nc(SCc3cccc(S(=O)(=O)N(C)C)c3)nc2n1 the results were Yeast UUG start -12, Dyrk1A ADPGlo -2, CAL PDZ FP-1 43*, dFosB activator -5 and CDK5 inh 2.
`Cc1ccc(CSc2nc3nc(C)cc(C)n3n2)cc1` gave Yeast UUG start -4, Dyrk1A ADPGlo -5, CAL PDZ FP-1 -3, dFosB activator -9, CDK5 inh -2 and CAL PDZ FP-2 0.
`COC(=O)C[C@@H]1CC[C@H]2[C@H](COc3ccc(NC(=O)Nc4ccccc4C)cc3C(=O)N2C)O1` gave Yeast UUG start 0.
`CCCNc1c(NS(=O)(=O)c2ccc(Br)cc2)c(=O)oc2ccccc12` gave Yeast UUG start -12, CAL PDZ FP-1 -3, dFosB activator 46* and CAL PDZ FP-2 -2.
COc1ccc(OC)c(C(=O)CSc2nnnn2C)c1 was read as Yeast UUG start -16, Dyrk1A ADPGlo 3, CAL PDZ FP-1 -1, dFosB activator 5, CDK5 inh 0 and CAL PDZ FP-2 -3.
For CCn1nnnc1SCC(=O)c1cc(OC)ccc1OC the results were Yeast UUG start -5, Dyrk1A ADPGlo -3, CAL PDZ FP-1 41*, dFosB activator -7, CDK5 inh 2 and CAL PDZ FP-2 0.
`Cc1cc(=O)n2nc(N3CCC(C(=O)NCCc4ccc(Cl)cc4)CC3)sc2n1` gave Yeast UUG start -11, Dyrk1A ADPGlo 5, CAL PDZ FP-1 68*, dFosB activator -12, CDK5 inh 0 and CAL PDZ FP-2 -1.
For Cc1cc(=O)n2nc(N3CCC(C(=O)NCc4ccccc4Cl)CC3)sc2n1 the results were Yeast UUG start -7, CAL PDZ FP-1 5, dFosB activator -1 and CAL PDZ FP-2 -1.
`CC(C)NC(=O)Nc1ccc2c(c1)C(=O)N([C@H](C)CO)C[C@@H](C)[C@H](CN(C)S(=O)(=O)c1ccccc1)O2` gave Yeast UUG start 0.
Screening O=C(CSc1nnc(CNC(=O)c2cccs2)o1)Nc1ccccc1C(F)(F)F returned Yeast UUG start -12, Dyrk1A ADPGlo 4, CAL PDZ FP-1 103*, dFosB activator 0, CDK5 inh 0 and CAL PDZ FP-2 -1.
For O=C(CSc1nnc(CNC(=O)c2cccs2)o1)Nc1ccccc1 the results were Dyrk1A ADPGlo 3, CAL PDZ FP-1 -4, dFosB activator -8, CDK5 inh 0 and CAL PDZ FP-2 -1.
Screening COc1ccc(/C=N/NC(=O)c2cccc(O)c2)cc1Cn1nc(C)c([N+](=O)[O-])c1C returned Dyrk1A ADPGlo -2, CAL PDZ FP-1 53*, dFosB activator -8, CDK5 inh 0 and CAL PDZ FP-2 -2.
For Cc1ccc(S(=O)(=O)Nc2ccccc2C(=O)N2CCN(C)CC2)cc1 the results were Yeast UUG start -11, Dyrk1A ADPGlo -5, CAL PDZ FP-1 44*, dFosB activator -5, CDK5 inh 0 and CAL PDZ FP-2 1.
`COc1ccc(-c2ccc3c(c2)[C@@H]2[C@@H](CCN2C(=O)Cc2ccccc2)[C@@H](CO)N3C)cc1` gave Yeast UUG start -5.
For Cc1ccc(C(=O)N/C(=C/c2ccc(-c3cc(C(F)(F)F)ccc3Cl)o2)C(=O)NCc2cccnc2)cc1 the results were Yeast UUG start -15, Dyrk1A ADPGlo 0, CAL PDZ FP-1 -3, dFosB activator -4, CDK5 inh 3 and CAL PDZ FP-2 -3.
O=C(NCc1cccnc1)/C(=C/c1ccc(-c2cccc(C(F)(F)F)c2)o1)NC(=O)c1ccccc1 was read as Yeast UUG start -18, Dyrk1A ADPGlo 7, CAL PDZ FP-1 42*, dFosB activator -10, CDK5 inh -2 and CAL PDZ FP-2 32.

Grouped by structure: those above with a nitro group on carbon
Screening CC1CN(C(=O)/C=C/c2ccc([N+](=O)[O-])s2)CC(C)O1 (configuration not stated) returned Dyrk1A ADPGlo 3, CAL PDZ FP-1 40*, dFosB activator -4, CDK5 inh -1 and CAL PDZ FP-2 0.
Screening COc1ccc(/C=N/NC(=O)c2cccc(O)c2)cc1Cn1nc(C)c([N+](=O)[O-])c1C returned Dyrk1A ADPGlo -2, CAL PDZ FP-1 53*, dFosB activator -8, CDK5 inh 0 and CAL PDZ FP-2 -2.

The list continues:
For C[C@@H]1CN([C@H](C)CO)C(=O)c2cccc(N(C)C)c2O[C@@H]1CN(C)S(=O)(=O)c1cn(C)cn1 the results were Yeast UUG start -16.
For COC(=O)c1cc(S(=O)(=O)NCCc2ccc(SC)cc2)c[nH]1 the results were Yeast UUG start -4, Dyrk1A ADPGlo -1, CAL PDZ FP-1 76*, dFosB activator -1, CDK5 inh 1 and CAL PDZ FP-2 -1.
COC(=O)c1cc(S(=O)(=O)NCCN2CCN(c3ccccc3F)CC2)c[nH]1 was read as Yeast UUG start -3, Dyrk1A ADPGlo 9, CAL PDZ FP-1 47*, dFosB activator 0, CDK5 inh 1 and CAL PDZ FP-2 -1.
COC(=O)c1cc(S(=O)(=O)N2CCN(c3ccccc3F)CC2)c[nH]1 was read as Yeast UUG start -6, Dyrk1A ADPGlo -3, CAL PDZ FP-1 -4, dFosB activator -8, CDK5 inh 0 and CAL PDZ FP-2 -3.
`COC(=O)c1cc(S(=O)(=O)NCCc2ccc(C)cc2)c[nH]1` gave Yeast UUG start -12, Dyrk1A ADPGlo 2, dFosB activator 4, CDK5 inh -1 and CAL PDZ FP-2 -1.
CC(=O)N(C)C[C@@H]1Oc2cc(-c3cccnc3)ccc2S(=O)(=O)N([C@@H](C)CO)C[C@@H]1C was read as Yeast UUG start 3.
For C[C@H]1CN([C@@H](C)CO)S(=O)(=O)c2ccc(/C=C/c3ccccc3)cc2O[C@H]1CN(C)C(=O)c1ccncc1 the results were Yeast UUG start -9.
COCC(=O)N[C@H]1C=C[C@H](CC(=O)NCc2ccccc2OC)O[C@@H]1CO was read as Yeast UUG start -19.

Two neighbouring entries from above, quoted:
For C[C@H]1CN([C@@H](C)CO)S(=O)(=O)c2ccc(/C=C/c3ccccc3)cc2O[C@H]1CN(C)C(=O)c1ccncc1 the results were Yeast UUG start -9.
COCC(=O)N[C@H]1C=C[C@H](CC(=O)NCc2ccccc2OC)O[C@@H]1CO was read as Yeast UUG start -19.
